Values of other authors in patent US20040208926A1 (Pfizer Inc, priority 1997, published 2004).

Details: in vivo; cited from earlier work

## CN[C@H]1CC[C@@H](c2ccc(Cl)c(Cl)c2)c2ccccc21 [Sertraline]
  elimination half-life: 13.8 min
